## Experimental melting point values from OPERA 2.9

The melting point is given in degrees Celsius.

The entry for Nn1cnc2ccccc21 [1H-benzimidazol-1-amine] lists mp 148 °C. Cc1occc1-c1n[nH]c(=S)n1C [4-methyl-5-(2-methyl-3-furyl)-4H-1,2,4-triazole-3-thiol] is reported with mp 119 °C. The entry for Nc1ccc(S(=O)(=O)N2CCCC2)cc1 [4-(pyrrolidin-1-ylsulfonyl)aniline] lists mp 165 °C. Cc1nc(N2CCOCC2)sc1C=O [4-methyl-2-morpholin-4-yl-1,3-thiazole-5-carbaldehyde] is reported with mp 167 °C. The entry for Cc1nn2c(=S)[nH][nH]c2nc1=O lists mp 306 °C. The entry for CC(C)(CCl)c1ccccc1 [Neophyl chloride] lists mp 36 °C.

The entry for Cc1noc(C)c1CC(=O)O [(3,5-Dimethyl-1,2-oxazol-4-yl)acetic acid] lists mp 118 °C. Listed for NC(=O)/C(=C\c1ccc([N+](=O)[O-])o1)c1ccco1 [AF-2]: mp 151.5 °C. The entry for CC(=O)NCc1ccc(S(=O)(=O)Cl)s1 [5-(acetamidomethyl)thiophene-2-sulfonyl Chloride] lists mp 81 °C. O=C(O)CCc1nc(-c2ccccc2)no1 [3-(3-phenyl-1,2,4-oxadiazol-5-yl)propanoic acid] is reported with mp 139 °C. For O=C(O)Cn1[nH]c(=O)c2ccccc2c1=O [(1,4-dioxo-3,4-dihydrophthalazin-2(1H)-yl)acetic acid] the data give mp 273 °C. Fc1cc2[nH]c(=S)[nH]c2cc1F [5,6-difluoro-1H-benzimidazole-2-thiol] has mp 292 °C.

Listed for O=C1N[C@H](C(=O)O)CS1 [Procysteine]: mp 168 °C. The entry for CC(=O)Nc1sc(C)c(C)c1C(=O)O [2-acetamido-4,5-dimethylthiophene-3-carboxylic acid] lists mp 218 °C. Nc1nc(-c2cccs2)cs1 [4-(Thiophen-2-yl)thiazol-2-amine] is reported with mp 137 °C. Listed for O=c1[nH]nnc2sc3c(c12)CCCC3: mp 186 °C. The entry for CN(C)C(=O)c1ccc(Cl)cc1N [2-Amino-4-chloro-N,N-dimethylbenzamide] lists mp 66 °C. CCc1cc2c(Cl)ncnc2s1 [4-chloro-6-ethylthieno[2,3-d]pyrimidine] has mp 56 °C.

The entry for O=C(O)c1ccccc1CO [2-(Hydroxymethyl)benzoic acid] lists mp 127.5 °C. COc1ccc2[nH]c(C)cc(=O)c2c1 [6-Methoxy-2-methylquinolin-4(1H)-one] has mp 285 °C. The entry for O=C(O)c1cncc2ccccc12 [Isoquinoline-4-carboxylic acid] lists mp 250 °C. O=C(O)/C=C/c1ccc2c(c1)CCO2 [(2E)-3-(2,3-Dihydro-5-benzofuranyl)-2-propenoic acid] is reported with mp 176 °C. COc1ccc(C2(C(=O)O)CCCC2)cc1OC [1-(3,4-dimethoxyphenyl)cyclopentanecarboxylic acid] has mp 141 °C. Cn1nc2ccc(NC(=O)c3ccc(Cl)cc3)cc2n1 [4-Chloro-N-(2-methyl-2H-benzotriazol-5-yl)benzamide] has mp 229 °C.

For O=C(CCl)NC12CC3CC(CC(C3)C1)C2 [Acetamide, N-(1-adamantyl)-2-chloro-] the data give mp 111 °C. For CCOC(=O)c1c[nH]n2c1nc(=O)c1ccccc12 the data give mp 202 °C. For N#CCc1nccn1Cc1ccccc1 [(1-benzyl-1H-imidazol-2-yl)acetonitrile] the data give mp 105 °C. For O=C(O)c1ccc(NC(=O)c2cc(Cl)cc(Cl)c2)cc1 [4-(3,5-Dichlorobenzamido)benzoic acid] the data give mp 306 °C. CCOc1ccc(OC(C)(C)C(=O)O)cc1 [2-(4-ethoxyphenoxy)-2-methylpropanoic acid] is reported with mp 67 °C. For Cc1cccc(NC(=O)C2CCNCC2)n1 [N-(6-Methylpyridin-2-yl)piperidine-4-carboxamide] the data give mp 176 °C.

For Cc1ccc(C=CC=O)cc1 [p-Methylcinnamaldehyde] the data give mp 41.5 °C. The entry for O=C(Nc1ccc2ccccc2c1)C(F)(F)C(F)(F)C(F)(F)F [(2-Naphthalenyl)perfluorobutanamide] lists mp 122.5 °C. O=C(O)c1ccccc1OCc1ccc(F)cc1 [2-[(4-fluorobenzyl)oxy]benzoic acid] has mp 82 °C. CC(C)c1ccc(C(=O)CC#N)cc1 [3-(4-isopropylphenyl)-3-oxopropanenitrile] is reported with mp 92 °C. O=C(O)c1ccc(S(=O)(=O)NCC2CCCO2)cc1 (stereo not given) [4-{[(Oxolan-2-yl)methyl]sulfamoyl}benzoic acid] is reported with mp 170 °C. For Nc1cc2c(cc1N)OCCO2 [2,3-Dihydro-1,4-benzodioxine-6,7-diamine] the data give mp 125 °C.

For O=C1N[C@@H](Cc2ccccc2)[C@@H](CCC(F)(F)C(F)(F)C(F)(F)C(F)(F)C(F)(F)C(F)(F)F)O1 the data give mp 92.5 °C. For COc1ccccc1CO [Benzenemethanol, 2-methoxy-] the data give mp 19.5 °C.

3 of these entries, quoted again:

CCOc1ccc(OC(C)(C)C(=O)O)cc1 [2-(4-ethoxyphenoxy)-2-methylpropanoic acid] is reported with mp 67 °C.
Cn1nc2ccc(NC(=O)c3ccc(Cl)cc3)cc2n1 [4-Chloro-N-(2-methyl-2H-benzotriazol-5-yl)benzamide] is reported with mp 229 °C.
CC(=O)Nc1sc(C)c(C)c1C(=O)O [2-acetamido-4,5-dimethylthiophene-3-carboxylic acid] is reported with mp 218 °C.

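OPERA's authors assembled the values from existing databases and did not measure them anew. The files give a single number for a compound and property, which may rest on several reports. Conditions of the individual experiments are not part of the data. A value may pool stereoisomers or salt forms, and the file does not say which form was measured. Unmarked limits or estimates from the upstream databases cannot be ruled out.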

Data: OPERA 2.9 data sets, kmansouri/OPERA on GitHub.